# Results taken from US8999323B2, “Composition that can be cured by polymerisation for the production of biodegradable, biocompatible, cross-linkable polymers on the basis of polyvinyl alcohol” (Technische Universität Wien, priority 2007, dated 2015).
# Experiment: in vitro
# Details: mouse
row,Structure (SMILES),CC50
1,"C=COC(=O)NCCOP(=O)(OCC)OCC [EPEVC, 2-(diethoxyphosphoryloxy)ethylamine vinyl carbamate]",> 10 mM
2,"C=COC(=O)P(=O)(OCC)OCC [VCPDE, vinyloxycarbonyl phosphonic acid diethyl ester]",> 10 mM
